The record followed here is patent US4276304A, “Novel benzylalcohol derivative and process for preparing the same” (priority 1979, dated 1981).

In this experiment the test system is blood platelets. The experiment can be described thus: Preventive effect upon the aggregation of blood platelets (collagen-induced, platelet-rich plasma). Type of experiment: cell-based, male Sprague-Dawley rats. As to conditions: for Platelet aggregation inhibiting activity: 100 μg/ml, graded against acetylsalicylic acid 100 μg/ml; for Inhibition (%) against platelet aggregation, A* (test compound group): test compound 100 μg/ml, collagen, rat PRP.

On to “α-[(α,α-dimethyl-3,4-methylenedioxyphenethylamino)methyl]-2-methoxybenzylalcohol 1/2 succinate”, for which the “Platelet aggregation inhibiting activity” value is listed as “- (less than 10% inhibition of platelet aggregation)” and the “Inhibition (%) against platelet aggregation, A* (test compound group)” value (“Inhibition (%)” below) was 6%.

As to “α-[(α,α-dimethyl-3,4-dimethoxyphenethylamino)methyl]-2-hydroxybenzylalcohol 1/2 oxalate”, the “Inhibition (%)” value worked out at 67%.

For the substance “α-[(α,α-dimethyl-3,4-methylenedioxyphenethylamino)methyl]-2-hydroxybenzylalcohol 1/2 oxalate”, the “Platelet aggregation inhibiting activity” value was “- (less than 10% inhibition of platelet aggregation)” and the “Inhibition (%)” value came to 2%.
